Data from patent US8476272B2 (dated 2013).
Read-outs that look alike come from different tables or passages of the source.

System: serum DPP4
Conditions: 10 mg/kg oral, single dose

Compound: N[C@@H](CC(=O)N1CCn2c(nnc2C(F)(F)F)C1)Cc1cc(F)c(F)cc1F [MK-0431]
- DPP4 specific activity % (0 h (before administration)): 100.0%
- DPP4 specific activity % (1 h): 35.7 ± 9.8%
- DPP4 specific activity % (3 h): 12.2 ± 1.0%
- DPP4 specific activity % (9 h): 39.0 ± 3.0%
- DPP4 specific activity % (12 h): 48.9 ± 3.6%
- DPP4 specific activity % (24 h): 62.5 ± 2.0%
